The results in this text go back to ChEMBL document CHEMBL5226283, “Reactive Oxygen Species (ROS)-Responsive Prodrugs, Probes, and Theranostic Prodrugs: Applications in the ROS-Related Diseases” (J Med Chem, 2021).

This is a selection: effects in other tests are not listed, and their absence says nothing.

Set-up in all cases: scale not given: the % may be the effect or the level left
One assay has as its system NCI-H460. In words: Antiproliferative activity against human NCI-H460 cells assessed as cell growth inhibition at 10 uM by SRB assay. On the technique in general: Sulforhodamine B stains cellular protein and so reports cell mass.
The next assay relates to CAKI-1. Kind of assay: Antiproliferative activity against human CAKI-1 cells assessed as cell growth inhibition at 10 uM by SRB assay.
Another assay has as its system SR. In words: Antiproliferative activity against human SR cells assessed as cell growth inhibition at 10 uM by SRB assay.
In the next assay the test system is SN12C. In words: Antiproliferative activity against human SN12C cells assessed as cell growth inhibition at 10 uM by SRB assay.

For `C[N+](CCCl)(CCCl)Cc1ccc(B(O)O)cc1.[Br-]`, the Activity stood at 85% with NCI-H460, 66% in the assay with CAKI-1, 90% with SR and 57% in the assay on SN12C.
